Apparent affinities of Ab-95 variants for a coronavirus HR2 peptide

From the AlphaSeq antibody data of Engelhart et al. 2022 (doi:10.1038/s41597-022-01779-4), copy in the FLAb collection.

Binding partner: SARS-CoV-2 spike HR2 peptide, sequence PDVDLGDISGINAS.

The variants keep the heavy chain, the linker and the frameworks of Ab-95 (scFv order VH, the linker GGGGSGGGGSGGGGS, VL).
VH: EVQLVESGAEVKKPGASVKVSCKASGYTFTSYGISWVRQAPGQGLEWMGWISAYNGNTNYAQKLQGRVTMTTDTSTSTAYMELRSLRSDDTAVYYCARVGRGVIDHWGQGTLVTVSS
VL: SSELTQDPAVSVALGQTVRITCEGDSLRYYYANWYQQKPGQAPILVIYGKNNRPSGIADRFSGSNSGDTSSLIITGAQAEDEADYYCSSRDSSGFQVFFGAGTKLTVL

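Phage display of a naive human antibody library on the peptide gave the parent. In library AAYL52, one, two or three CDR residues were substituted; doubles and triples were drawn at random. Affinity was read by AlphaSeq, a pooled yeast mating assay with surface-displayed partners. Pairs that bind mate more often; barcode pairs of the diploids are counted by sequencing. Each replicate has its own calibration line, from reference interactions of the BCL2 family. There are three technical replicates.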

The parent's light chain CDRs are EGDSLRYYYAN, GKNNRPS, SSRDSSGFQVF; each variant's own CDRs replace them letter for letter. Affinities are written as log10 Kd with Kd in nM; a lower number is a better binder. Where no diploid with the target was found in that replicate, the entry reads "ND": below detection, most likely a poor binder, though not proof of it. Empty control strains, which show no peptide, gave a signal in 28% of pairings with library AAYL52; the median was 3.91 and 95% of these signals were weaker than 2.90. No background was subtracted. For each scFv, signals with the empty controls are counted beside the result.

The variant EGDSLRYYYAN, GKKNRPM, SSRDSSGVQVF showed ND, 4.64, ND (controls 4 of 9).
The variant EGDSDRYYYAN, GKNNRPS, SSWDKSGFQVF showed ND, ND, 3.38 (controls 2 of 9).
The variant EGDSLVKYYAN, GKNNRPE, SSRDSSGFQVF showed 2.63, 2.24, 2.23 (controls 4 of 9).
The variant EGDSLRYYYAN, GKNNRPS, SGRTRSGFQVF showed 3.06, 3.58, 3.48 (controls 4 of 9).
The variant EGDSYRYWYAN, GKNNRPS, SSRDSSGFYVF showed 2.59, 2.85, 2.21 (controls 4 of 9).
The variant EGDSLRYYYAA, GKNNKPS, SSRDSWGFQVF showed 4.66, ND, ND (controls 1 of 9).
The variant EGDYLRYYEAN, GKNNRPS, SSRVSSGFQVF showed 3.01, ND, ND (controls 1 of 9).
The variant EGDSNRYYYAN, GKNNRPS, SSRDERGFQVF showed 2.61, 3.80, 3.06 (controls 2 of 9).
The variant EYNSLYYYYAN, GKNNRPS, SSRDSSGFQVF showed ND, ND, ND (controls 3 of 9).
The variant ERDSLRYYTAN, GKNNRPS, SSEDSSGFQVF showed ND, 3.34, 3.58 (controls 1 of 9).
The variant ETDSLRYYYAN, GRNNRPS, SSRDSRGFQVF showed 4.62, 3.42, 4.19 (controls 0 of 9).
The variant EGDSARPPYAN, GKNNRPS, SSRDSSGFQVF showed 2.60, 2.07, 2.22 (controls 0 of 9).
The variant EGDSLRYYYAN, GKNNRPS, WSRDSSGFQVF showed 2.50, 2.78, 2.15 (controls 1 of 9).
The variant EGDSLRYYYAN, GKNNRPS, SSRDMSGFHNF showed ND, 2.55, 3.35 (controls 2 of 9).
The variant EGMSLRYYYAN, GKNNRPS, SSRDFSGFQCF showed 2.48, 2.47, 2.97 (controls 6 of 9).
The variant EGDSLTYYYAN, GKNNCPS, SSRDSSGFSVF showed 3.57, 5.23, ND (controls 3 of 9).
The variant EGDSLRYYYAN, AKNNRAH, SSRDSSGFQVF showed 3.78, 4.27, 2.91 (controls 0 of 9).
The variant EGDSLRYYYAN, GHNNRPS, SSIDSSEFQVF showed ND, ND, ND (controls 0 of 9).
The variant EGDSSRYYYAN, GKNNRPS, SSHDSSGDQVF showed 4.03, 3.31, 4.54 (controls 6 of 9).
The variant EGWSLRYYYAN, FKNNRPN, SSRDSSGFQVF showed 3.27, 4.00, ND (controls 3 of 9).
The variant EGDSLRYYYAN, GKNNRWS, SSRDGSGFQIF showed 3.47, 5.12, 2.76 (controls 1 of 9).
The variant EGDSLRHYYAN, LKNNRPS, SSRISSGFQVF showed 3.24, 3.39, 3.40 (controls 3 of 9).
The variant TGDSLRIYYAN, GKNNRRS, SSRDSSGFQVF showed 4.53, 2.87, ND (controls 1 of 9).
The variant EGDSLLYYYSN, GKNNRPS, SSRDSSGFVVF showed ND, 5.60, ND (controls 6 of 9).
The variant EGDSLRYYGAN, GKNNRPS, SSRFSSGFQSF showed 2.23, 2.25, 2.44 (controls 4 of 9).
The variant EGDSLRYYWAS, GKNNRPS, SSRQSSGFQVF showed 3.32, 3.23, 2.62 (controls 3 of 9).
The variant EGDHLRYYYAN, GKNNRPS, QSRDSSGFQNF showed 4.12, 2.71, 2.19 (controls 0 of 9).
The variant EGDSLRYYRAN, GKNNRLS, SSRFSSGFQVF showed ND, 5.28, ND (controls 0 of 9).
The variant EGLSLRYYYAN, AKNNRPS, SSRDSSGFQVF showed ND, ND, ND (controls 0 of 9).
The variant EGDLLRYYYAN, GKNNRPS, SSRDSYGFQVF showed ND, ND, 3.30 (controls 1 of 9).
The variant EGDSLRYYYAN, NKNNRPS, SSTDSSGFDVF showed ND, ND, ND (controls 1 of 9).
The variant EGDSLRYYYAN, GTNNRPS, YSRDSSGFFVF showed ND, ND, ND (controls 1 of 9).
The variant EGDSLRYYYAN, GKYNRPS, FQRDSSGFQVF showed 4.14, 4.10, 3.76 (controls 2 of 9).
The variant EGDTLRAYYAN, GKNNRPS, SSRDSSGFQVF showed 2.75, 2.54, 2.20 (controls 6 of 9).
The variant EGDMLRYYLAN, KKNNRPS, SSRDSSGFQVF showed 4.50, 3.00, 3.81 (controls 3 of 9).
The variant VGDSLRYYYAN, GKNNRPS, SSRDPSGFQYF showed 4.40, 4.77, 2.81 (controls 3 of 9).
The variant EGDSLREYYEN, GKNNRPS, SVRDSSGFQVF showed 2.46, 2.78, 1.92 (controls 5 of 9).
The variant EGDSLRYYKAN, GKNTRPS, SSRDSEGFQVF showed 2.92, 2.87, 3.95 (controls 2 of 9).
The variant EGDSLVNYYAN, GKNNRPS, ESRDSSGFQVF showed 1.50, 1.64, 1.12 (controls 7 of 9).
The variant EGDSLRYYYAN, GCNCRPK, SSRDSSGFQVF showed 3.89, ND, 4.15 (controls 4 of 9).

The first 4 variants above that were never detected:

{"CDR-L1": "EYNSLYYYYAN", "CDR-L2": "GKNNRPS", "CDR-L3": "SSRDSSGFQVF", "log10 Kd, replicates": "ND, ND, ND", "signal with controls": "3/9"}
{"CDR-L1": "EGDSLRYYYAN", "CDR-L2": "GHNNRPS", "CDR-L3": "SSIDSSEFQVF", "log10 Kd, replicates": "ND, ND, ND", "signal with controls": "0/9"}
{"CDR-L1": "EGLSLRYYYAN", "CDR-L2": "AKNNRPS", "CDR-L3": "SSRDSSGFQVF", "log10 Kd, replicates": "ND, ND, ND", "signal with controls": "0/9"}
{"CDR-L1": "EGDSLRYYYAN", "CDR-L2": "NKNNRPS", "CDR-L3": "SSTDSSGFDVF", "log10 Kd, replicates": "ND, ND, ND", "signal with controls": "1/9"}

Parent in this assay: reference entry 2.31, copy in this library 2.25.